Measured values from PubChem BioAssay AID1259318 (Sanford-Burnham Center for Chemical Genomics, 2017).
The list shows a part of the results, in another mix than the full data. Active and inactive are the calls of the source.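 The calls were made as follows: active = activity above about 14% (limit read from the data; passing the limit was not always enough); inactive = the rest.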

By UniProt entry, the sequences of proteins in these tests, tags left out. Where a name states a change or a piece, a line headed by the entry shows the natural chain unless it says otherwise.
UniProt P20393: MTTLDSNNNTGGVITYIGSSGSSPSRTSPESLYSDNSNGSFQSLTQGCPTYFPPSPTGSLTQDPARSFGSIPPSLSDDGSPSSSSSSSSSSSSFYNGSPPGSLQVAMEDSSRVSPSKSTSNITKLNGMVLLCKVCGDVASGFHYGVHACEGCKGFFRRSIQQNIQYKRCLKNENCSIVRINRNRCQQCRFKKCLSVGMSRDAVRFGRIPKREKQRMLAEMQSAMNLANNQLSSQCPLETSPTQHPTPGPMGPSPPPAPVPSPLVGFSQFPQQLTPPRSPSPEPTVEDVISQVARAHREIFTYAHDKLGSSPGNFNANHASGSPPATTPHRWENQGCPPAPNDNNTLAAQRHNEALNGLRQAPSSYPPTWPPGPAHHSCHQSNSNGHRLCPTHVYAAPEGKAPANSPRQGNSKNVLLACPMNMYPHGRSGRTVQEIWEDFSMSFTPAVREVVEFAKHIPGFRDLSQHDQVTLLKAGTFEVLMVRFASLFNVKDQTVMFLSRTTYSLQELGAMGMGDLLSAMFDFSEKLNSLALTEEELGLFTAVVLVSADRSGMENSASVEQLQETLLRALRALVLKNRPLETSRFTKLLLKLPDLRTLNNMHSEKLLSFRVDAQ

What follows are compounds tested against Nuclear receptor subfamily 1 group D member 1 (Homo sapiens) (UniProt P20393) (assay: Rev-erbα–DNA interaction modulation – biochemical, FITC-DNA, fluorescence polarization, uHTS, primary screen (AID 1259318;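 also: 0% = DMSO wells with 35 nM protein and 100% = DMSO wells with 750 nM protein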)). Conditions: Rev-erbα–FITC-DNA binding, 90 min, at 10 µM, active compounds read high.

Compound | activity
Cc1ccc(NP(=O)(Oc2ccccc2F)Oc2ccccc2F)nc1 | inactive: -0.39%
CN(C(=O)Cc1ccc(Cl)c(Cl)c1)[C@H]1CCCC[C@@H]1N1CCCC1 | inactive: -5.53%
CCOP(=O)(Nc1ccccc1)OCC | inactive: -0.61%
Cc1cc(SC(NC(=O)c2ccc(F)cc2)C(Cl)(Cl)Cl)ncn1 (stereo unspecified) | inactive: -1.54%
CCn1c(=O)n(C2CCN(CC3CCCCCCC3)C[C@H]2CO)c2ccccc21 (stereo partly specified) | inactive: -4.41%
CCCC1OP(N)(=O)OCC1CC (stereo unspecified) | inactive: 6.18%
O=C(O)c1ccccc1[As](=O)(O)O | inactive: 3.62%
CC(=O)Nc1ccc([As](=O)(O)O)cc1 | inactive: -5.22%
CN(C)P(=O)(N(C)C)n1c(Nc2ccccc2)nnc1-c1ccccc1 | inactive: 0.9%
O=P(Nc1nc2ccc(Cl)cc2s1)(c1ccccc1)c1ccccc1 | inactive: 2.74%
CCN(N=Nc1nonc1N)c1nonc1N | inactive: -0.13%
CN(C(=O)Cc1ccccc1)C1CC[C@@]2(CCCO2)C[C@@H]1N1CCCC1 (stereo partly specified) | inactive: -1.8%
Nc1cccc2ccc([As](=O)(O)O)cc12 | inactive: -25.1%
Cc1ccc(OP(=O)(Nc2nccs2)Oc2ccc(C)cc2)cc1 | inactive: -2.75%
COc1ccccc1OP(=O)(Nc1ccc(C)cn1)Oc1ccccc1OC | inactive: -7.3%
Clc1ccc(Cl)c(NC2=NCC(CBr)S2)c1 (stereo unspecified) | inactive: -3.75%
CN1CCCC(OC(=O)C(c2ccccc2)c2ccccc2)C1 (stereo unspecified) | inactive: 0.24%
NC(=O)c1cc([N+](=O)[O-])cc([N+](=O)[O-])c1N | inactive: 4.7%
Cc1ccc(N/C(=N/P(=O)(N2CCOCC2)N2CCOCC2)N2CCOCC2)cc1 | inactive: 6.98%
CN(C(=O)Cc1ccc(Cl)c(Cl)c1)[C@H]1CCCC[C@H]1N1CCCC1 | inactive: -0.98%
CC(C)CC(=O)NC(Sc1ccc(Cl)cc1)C(Cl)(Cl)Cl (stereo unspecified) | inactive: -3.8%
Nc1cc(N)c2nonc2c1[N+](=O)[O-] | inactive: 5.66%

Compound | activity
O=C(NC(Sc1ccncn1)C(Cl)(Cl)Cl)c1ccccc1 (stereo unspecified) | inactive: 2.87%
Oc1ccccc1CNc1ccccn1 | inactive: 0.88%
O=[N+]([O-])c1cccc2n[nH]nc12 | inactive: -2.8%
CC(=O)N1C2C3N(C(C)=O)C1C1N(C(C)=O)C(C(N1C(C)=O)N3C(C)=O)N2C(C)=O | inactive: 1.42%
CCc1nc2c(n1)c1c(non1O)c1c2no[n+]1[O-] | inactive: -5.66%
O=[N+]([O-])c1cc([N+](=O)[O-])c(CCNc2ccccc2)c([N+](=O)[O-])c1 | inactive: 1.17%
Cc1ccc(NP(=O)(Oc2ccccc2)Oc2ccccc2)nc1 | inactive: -2.68%
COc1ccc(C2=NCC(CBr)S2)cc1 (stereo unspecified) | inactive: -1.38%
CN(C)C(=O)OCCc1n(C)cc[n+]1C | inactive: 1.27%
CC(C)=N/N=C(\N)N[N+](=O)[O-] | inactive: 4.12%
CC(C)c1nc(Nc2ccccc2)n(P(=O)(N(C)C)N(C)C)n1 | inactive: -9.38%
c1cc(-c2nn[nH]n2)ccc1-c1nn[nH]n1 | inactive: -2.77%
CC1CCN(C(=O)Oc2c(Cl)cc(Cl)c3cccnc23)CC1 | inactive: 5.06%
C[N+]1=C2C=CC=CC=C2SC12C([N+](=O)[O-])=CC([N+](=O)[O-])=C[C-]2[N+](=O)[O-] (stereo unspecified) | inactive: -30.7%
Nc1ccc([As](=O)(O)c2ccc(N)cc2)cc1 | inactive: 5.58%
CCN(/C(=N/P(=O)(N1CCOCC1)N1CCOCC1)N1CCOCC1)c1ccc(OC)cc1 | inactive: 1.32%
O=C(Nc1cc([As](=O)(O)O)ccc1O)c1ccccc1 | inactive: 1.47%
O=P1(N(CCCl)CCCl)OCCCS1 (stereo unspecified) | inactive: -7.78%
O=[N+]([O-])c1cccc(NC2=NCC(CBr)S2)c1 (stereo unspecified) | inactive: 3.74%
COC(=O)C1(C)COP(=O)(Nc2ccccc2)OC1 (stereo unspecified) | inactive: 0.82%
O=C(O)CNc1ccc([As](=O)(O)O)cc1 | inactive: -0.37%
CC(C)(C)C(=O)NC(Sc1ccncn1)C(Cl)(Cl)Cl (stereo unspecified) | inactive: 6.35%

Compound | activity
O=[N+]([O-])c1ncn(CCn2ncnc2[N+](=O)[O-])n1 | inactive: -3.65%
C[C@H]1OP(=O)(Oc2ccccc2)[C@H](O)[C@H](O)[C@H]1N=[N+]=[N-] (stereo partly specified) | inactive: -0.62%
O=P(Nc1nc2ccccc2s1)(c1ccccc1)c1ccccc1 | inactive: 4.28%
Nc1ccc(CCCCOc2ccccc2)cc1 | inactive: -0.56%
COc1ccc(N)c([N+](=O)[O-])c1[N+](=O)[O-] | inactive: -3.94%
O=P(Nc1ccccn1)(c1ccc(Br)cc1)c1ccc(Br)cc1 | inactive: 1.55%
CN(C)C1(CNC(=O)c2ccc(Cl)c(S(N)(=O)=O)c2)CCCCC1 | inactive: 2.76%
Nc1ccc([As](=O)(O)c2ccc([N+](=O)[O-])cc2)cc1 | inactive: 5.34%
C(Cc1nn[nH]n1)Cc1nn[nH]n1 | inactive: -5.17%
C/C(N)=N\P(=O)(OCc1ccccc1)OCc1ccccc1 | inactive: 3.73%
O=C(OC1CN2CCC1CC2)c1cccc(Cl)c1 (stereo unspecified) | inactive: 1.43%
CC(=O)NC(SC(=S)N(C)C)C(Cl)(Cl)Cl (stereo unspecified) | inactive: 1.84%
O=[N+]([O-])c1ncn(CCn2cnc([N+](=O)[O-])n2)n1 | inactive: 4.66%
O=[As](O)(c1ccccc1)c1ccc(O)cc1 | inactive: -5.75%
c1nnnn1CCn1cnnn1 | inactive: 3.6%
CC(C)C(=O)NC(Sc1ccccc1)C(Cl)(Cl)Cl (stereo unspecified) | inactive: 0.59%
O=P(Nc1nccs1)(c1ccccc1)c1ccccc1 | inactive: -4.21%
CCc1cc(O)c([N+](=O)[O-])c(C)c1[N+](=O)[O-] | inactive: -0.63%
CC(C)(C)C(=O)NC(Sc1ccccc1)C(Cl)(Cl)Cl (stereo unspecified) | inactive: 6.7%
CCOc1ccc(C2=NCC(CBr)S2)cc1 (stereo unspecified) | inactive: -5%
O=P1(Nc2nc3ccc(Cl)cc3s2)COc2ccccc2O1 (stereo unspecified) | inactive: -8.06%
CC(=O)Nc1ccc(Oc2c([N+](=O)[O-])cc([N+](=O)[O-])cc2[N+](=O)[O-])cc1 | inactive: 1.8%
